According to US20040209930A1, “Synergistic methods and compositions for treating cancer” (priority 2002, published 2004):

Tested on: GEO human colon carcinoma xenografts
Type: in vivo

Substance: cetuximab
- tumor growth delay (TGD) (single agent cetuximab at its optimal dose of 0.25 mg/mouse, ip, q3dx6, nude mice, advanced-stage GEO xenografts): 14.5 days
- antitumor activity as monotherapy (single agents, inhibiting tumor growth/progression and causing tumor growth delay): significant antitumor activities
